Values quoted from earlier work, collected in patent US11771709B2 (dated 2023).
Where two headings read alike, the source gives them in different places.

Tested on: ALK positive non-small cell lung cancer
Settings: cited from earlier work

SMILES	progression free survival (second line after Crizotinib resistance (Asao et al., 2017))	progression free survival (ALK positive non-small cell lung cancer patients (Nishio et al, 2017))	median progression free survival (Asian patients)	median progression free survival (patients, 7.2 months with chemotherapy)	objective response rate (patients, 20% with chemotherapy)
CCc1cc2c(cc1N1CCC(N3CCOCC3)CC1)C(C)(C)c1[nH]c3cc(C#N)ccc3c1C2=O [Alectinib]	up to 35 months				
C[C@@H](Oc1cc(-c2cnn(C3CCNCC3)c2)cnc1N)c1c(Cl)ccc(F)c1Cl [Crizotinib]		about 10 months	13.6 months	9.6 months	65%
